ARFGAP1 inhibitor = rat ARFGAP1 inhibition. Arfgap1-stimulated ARF1 GTP hydrolysis, GDP FP detection. actives 0.26% (n = 360,000). inhibition, % at 16.5 µM. Q62848. AID 651572;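 active = inhibition above a per-plate limit, mean inhibition of low control wells plus 3 SD, cut at about 25% in these data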;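 also: 0% = DMSO wells with enzyme and 100% = wells lacking Arfgap1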
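Material – truncated rat Arfgap1 GAP domain · Buffer or medium – HEPES-based buffer, pH 7.5 · Reagent – human ARF1(Δ1-17)-GTP substrate · Dosing – 16.5 µM single point, 1.26% DMSO · Schedule – GTP hydrolysis reaction 2 h at 25 °C · Technique – GDP detection by fluorescence polarization · Benchmarks – No-Arfgap1 wells (100%) versus DMSO full-reaction wells (0%) · Repeats – single replicate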
Yeast UUG start = alters start codon recognition fidelity in yeast | S. cerevisiae UUG-firefly luciferase reporter, luminescence/redox ratio | activity score, % at 18.7 µM | 350,000 compounds, 0.13% hits | AID 602363;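 active = replicate mean at a twofold rise or more, about +100% in these data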;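 note: firefly luciferase made from a UUG start codon reports start codon fidelity; reporter light over untreated wells divided by growth signal over untreated wells; some hits fall short of that in this replicate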
MC4R barr agon = agonists of human melanocortin 4 receptor (MC4R) beta-arrestin. P32245. U2OS MC4R beta-arrestin complementation, luminescence; percent of melanotan II response, DMSO zero. activation, % at 8.9 µM. actives 0.98% (n = 360,000);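 active = activation above a per-plate cutoff, the mean activation of sample wells on that plate plus 3 SD, cut at about 8% in these data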
MC4R antagonist = antagonists of human melanocortin 4 receptor (MC4R). inhibition, % at 6.5 µM. P32245. MC4R-expressing cells, MTII-stimulated cAMP, LANCE TR-FRET. actives 0.48% (n = 360,000);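 active = inhibition above its plate's cutoff, the mean of tested wells on that plate plus 3 SD, cut at about 29% in these data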;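 also: 0% = Melanotan II alone and 100% = Melanotan II plus saturating MCL0020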
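Assay system: U2OS-MC4R stable cell line; Also added: Melanotan II; Technique: Eu-cAMP/anti-cAMP TR-FRET, emission 671 nm; Times: 30-min compound, 1-h challenge, 1-h detection, room temperature.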
NRP1-CendR mod = alters CendR peptide binding to human NRP-1. O14786. FAM-RPARPAR peptide binding to NRP-1, fluorescence polarization. inhibition, % at 25 µM. actives 0.85% (n = 360,000);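 active = inhibition or corrected inhibition above about 18%, plus a signal ratio from 0.5 to 1.5, limit read from the data, passing the limit was not always enough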
ASAP1 inh = inhibitors of human ASAP1 ArfGAP activity; inhibition, % at 16.5 µM; AID 624377; actives 0.19% (n = 360,000); ASAP1-stimulated ARF1 GTP hydrolysis, GDP FP detection; in the data active = inhibition above about 25%;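 also: 0% = vehicle with enzyme and substrate and 100% = no enzyme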
* = called active by the depositor; · = no result given. Hits are enriched below; roughly 2.3% of the tested compounds scored in any of these assays.

SMILES | ARFGAP1 inhibitor | Yeast UUG start | MC4R barr agon | MC4R antagonist | NRP1-CendR mod | ASAP1 inh
COc1ccccc1C(=O)NCCCNC(=O)c1cnccn1 | -3 | -11 | 0 | 7 | 17 | 9
COc1ccccc1C(=O)NCCCNC(=O)c1cccnc1 | -5 | -14 | -2 | 2 | 33* | -1
O=C1CCN(Cc2cccnc2)CCN1[C@H](CO)c1ccccc1 | 6 | -24 | -1 | -5 | 22* | -2
O=C1CCN(CCc2ccccc2)CCN1[C@H](CO)c1ccccc1 | 15 | -13 | 2 | 7 | 5 | -3
CCCS(=O)(=O)N1CCCC(C(=O)NC2CCCC(C)C2C)C1 (centres undefined) | 9 | -2 | 1 | 5 | 0 | 0
CCCS(=O)(=O)N1CCC(C(=O)NC2CCCC(C)C2C)CC1 (centres undefined) | -6 | -10 | 0 | 4 | 26* | 4
Cc1ccccc1NC(=O)C1C2/C=C\CCCCC21 (centres undefined) | 18 | · | 8.8* | 7 | -17 | -2
Cc1ccccc1NC(=O)C1C2CCCCC21 (centres undefined) | -3 | -15 | 0 | 7 | 1 | -6
Cc1ccc(S(=O)(=O)N(C)C[C@H]2OCCCC[C@@H](C)Oc3ccc(NC(=O)Nc4ccc5c(c4)OCO5)cc3C(=O)N([C@H](C)CO)C[C@@H]2C)cc1 | · | -3 | · | · | · | ·
CCN(CC(=O)Nc1ccc(NC(C)=O)cc1)C(=O)/C=C/c1cn(-c2ccccc2)nc1-c1ccc(F)cc1 | -4 | · | 8.4* | 1 | 3 | -6
CCN(CC(=O)Nc1ccc(NC(C)=O)cc1)C(=O)/C=C/c1cn(-c2ccccc2)nc1-c1ccc(C)cc1 | 13 | -20 | -3 | 6 | 3 | -6
COCC(=O)Nc1ccc2c(c1)C(=O)N(C)C[C@H](OC)[C@H](C)CN(C(=O)c1ccccn1)[C@@H](C)CO2 | · | -12 | · | · | · | ·
COc1ccc(-c2ccc(OC)c(OC)c2OC)c(OC)c1OC | -9 | · | -3 | 0 | 20* | 3
COc1cc(C(=O)NCc2ccncc2)cc(OC)c1OC | -8 | · | -1 | -3 | 0 | -2
COc1cc(C(=O)NCc2ccccc2)cc(Br)c1OC | 13 | · | -4 | 5 | 21* | 0

Whole records, quoted from the list. Order of screens: ARFGAP1 inhibitor, Yeast UUG start, MC4R barr agon, MC4R antagonist, NRP1-CendR mod, ASAP1 inh
O=C1CCN(Cc2cccnc2)CCN1[C@H](CO)c1ccccc1 is entered as 6, -24, -1, -5, 22*, -2
COc1ccccc1C(=O)NCCCNC(=O)c1cccnc1 is entered as -5, -14, -2, 2, 33*, -1

Continuation.
SMILES | ARFGAP1 inhibitor | Yeast UUG start | MC4R barr agon | MC4R antagonist | NRP1-CendR mod | ASAP1 inh
COc1cc(C(=O)NC(c2ccccc2)c2ccccc2)cc(OC)c1OC | 1 | -14 | 9.4* | 8 | 17 | -8
O=C(NC(c1ccccc1)c1ccccc1)c1ccccc1 | 3 | -20 | 7 | 1 | 15 | 21
CCCNC(=O)C[C@@H]1C[C@@H]2c3cc(NC(=O)Nc4ccc(OC)cc4)ccc3O[C@@H]2[C@H](CO)O1 | · | 19 | · | · | · | ·
C=CCc1ccc(OCC(O)COc2ccc(CC=C)cc2OC)c(OC)c1 | 9 | -10 | 8.7* | 12 | -2 | 6
C=CCc1ccc(OCC(O)CN2CCCCC2)c(OC)c1 (centres undefined) | 8 | 0 | -2 | 0 | -2 | 3
O=C(/C=C/c1ccccc1)OCC(=O)c1c[nH]c2ccccc12 | 3 | · | 9.3* | 3 | -6 | -4
COc1ccc(C(=O)c2cnc(/N=C/N(C)C)s2)cc1 | 4 | · | 2 | 3 | 32* | -7
CCOc1ccc(-n2c(N)c(-c3nc4ccccc4[nH]3)sc2=S)cc1 | 8 | 0 | 8.8* | 2 | 7 | 4
COc1cccc(-n2nnc3c(=O)n(CC(=O)OCc4ccccc4)cnc32)c1 | -2 | 0 | 5 | 3 | 26* | 5
Cc1cc(S(=O)(=O)NCC(c2ccc3c(c2)OCO3)N2CCOCC2)ccc1F (centres undefined) | 12 | -15 | -1 | 7 | 24* | -8
O=C(COC(=O)Cc1ccc(Cl)cc1)Nc1cc(S(=O)(=O)N2CCOCC2)ccc1N1CCCC1 | -1 | · | -1 | 22 | 44* | -7
C[C@H](NC(=O)c1nc[nH]c1C(=O)N1CCN(C(=O)OC(C)(C)C)CC1)c1ccccc1 | -1 | -14 | 1 | 13 | 18 | 9
CC(C)(C)OC(=O)N1CCC(NC(=O)c2[nH]cnc2C(=O)Nc2cccc(Cl)c2)CC1 | -5 | -22 | 4 | 19 | 33* | 9
C[C@@H](NC(=O)c1nc[nH]c1C(=O)NC1CCN(C(=O)OC(C)(C)C)CC1)c1ccccc1 | 10 | 6 | 2 | 6 | 22* | -1
CCOC(=O)/C(N=Nc1c(C)n(C)n(-c2ccccc2)c1=O)=C(/O)c1ccccc1 | 8 | · | -2 | 8 | 32* | 0

Fetched one by one from above (2):
SMILES | ARFGAP1 inhibitor | Yeast UUG start | MC4R barr agon | MC4R antagonist | NRP1-CendR mod | ASAP1 inh
COc1ccc(C(=O)c2cnc(/N=C/N(C)C)s2)cc1 | 4 | · | 2 | 3 | 32* | -7
C[C@@H](NC(=O)c1nc[nH]c1C(=O)NC1CCN(C(=O)OC(C)(C)C)CC1)c1ccccc1 | 10 | 6 | 2 | 6 | 22* | -1

Further structures
SMILES | ARFGAP1 inhibitor | Yeast UUG start | MC4R barr agon | MC4R antagonist | NRP1-CendR mod | ASAP1 inh
Cc1c(N=N/C(C(=O)Nc2ccccc2)=C(/O)c2ccccc2)c(=O)n(-c2ccccc2)n1C | -5 | · | -1 | 13 | -58 | -4
CCCC(=O)Nc1ccc2c(c1)C(=O)N(C)C[C@H](OC)[C@@H](C)CN(C(=O)CN(C)C)[C@H](C)CO2 | · | 5 | · | · | · | ·
O=C(CC1SC2=NCCN2C1=O)Nc1ccc(Cl)cc1 (centres undefined) | -15 | 4 | 1 | -4 | 27* | -1
O=C(CC1Sc2ncnn2C1=O)Nc1ccc(Cl)cc1 (centres undefined) | 1 | · | · | · | · | 1
CC[C@@]12C(=O)N(c3ccc(C)cc3)C(=O)N1[C@H](c1cccc(C)c1)[C@@H]1C(=O)N(Cc3ccccc3)C(=O)[C@@H]12 | -4 | -10 | 1 | 4 | 9 | 5
CC[C@@]12C(=O)N(c3ccc(OC)cc3)C(=O)N1[C@H](c1cccc(C)c1)[C@@H]1C(=O)N(Cc3ccccc3)C(=O)[C@@H]12 | · | 0 | 0 | 1 | 35* | ·
O=C(Nc1cc(Br)ccc1O)c1cc(-c2ccc3c(c2)OCO3)on1 | 9 | 1 | -1 | 7 | -7 | 8
CSc1ccccc1NC(=O)c1cc(-c2ccc3c(c2)OCO3)on1 | 4 | -22 | 12* | -3 | -5 | 3
O=C(C1CCCC1)N1[C@@H](CO)[C@@H]2c3ccccc3N(S(=O)(=O)c3ccc(F)cc3)C[C@@H]21 | · | 4 | · | · | · | ·
C#CCCOC(=O)N1C2=NC(C(=O)OC)=C(C(=O)OC)[C@@H]3N(C)c4ccccc4[C@]23C[C@H]1CO | 2 | -19 | -1 | 4 | 26* | -8
COC(=O)C1=C(C(=O)OC)[C@@H]2N(C)c3ccc(OC)cc3[C@@]23C[C@@H](C(=O)OC)N(C(=O)c2ccc(Br)cc2)C3=N1 | 10 | -22 | -1 | 8 | -1 | 5
CCOC(=O)N1C2=NC(C(=O)OC)=C(C(=O)OC)[C@@H]3N(C)c4ccc(OC)cc4[C@]23C[C@H]1C(=O)OC | 3 | -21 | 0 | 10 | 25* | -10
Cc1cccc(C)c1NC(=O)CSc1nc(-c2ccco2)cc(C(F)(F)F)n1 | 0 | -13 | 1 | 5 | -4 | 1
O=C(CSc1nc(-c2ccco2)cc(C(F)(F)F)n1)Nc1ccccc1C(F)(F)F | 5 | -19 | 9.4* | -14 | -1 | 0

As entered above:
Yeast UUG start with `CCCC(=O)Nc1ccc2c(c1)C(=O)N(C)C[C@H](OC)[C@@H](C)CN(C(=O)CN(C)C)[C@H](C)CO2` reads 5
MC4R antagonist with `O=C(CC1SC2=NCCN2C1=O)Nc1ccc(Cl)cc1` (centres undefined) reads -4
NRP1-CendR mod with `CSc1ccccc1NC(=O)c1cc(-c2ccc3c(c2)OCO3)on1` reads -5

Bioassay records as filed in PubChem BioAssay.
